{"source": "paper PMC3839849", "molecular_target": "CaV1.2 IQ domain (human)", "test": "ITC"}
{"substance": "C-lobeCaMEF34, apo-CaM C-lobe mimic (domain or fragment)", "values": [{"measurement": "Kd", "result": 2200, "unit": "nM"}, {"measurement": "dH", "result": -3.79, "unit": "kcal/mol"}]}
{"substance": "N-lobeCaMEF12, apo-CaM N-lobe mimic (domain or fragment)", "values": [{"measurement": "Kd", "result": "> 5000", "unit": "nM"}]}
